# pKi: −log10 of the molar value.
# Sequences of proteins named here, by UniProt entry; tags and fusion partners are left off. A change or cut given only in a name is not applied to a line headed by its entry.
# UniProt P00915: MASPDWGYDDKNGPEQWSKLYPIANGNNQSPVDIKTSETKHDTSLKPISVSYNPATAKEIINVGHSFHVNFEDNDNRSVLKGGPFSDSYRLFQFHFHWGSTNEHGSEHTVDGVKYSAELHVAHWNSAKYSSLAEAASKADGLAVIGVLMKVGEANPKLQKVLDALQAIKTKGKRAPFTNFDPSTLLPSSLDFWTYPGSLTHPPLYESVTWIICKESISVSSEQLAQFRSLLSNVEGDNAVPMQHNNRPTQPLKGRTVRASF
# Columns and labels:
# hCA I = hCA I (Homo sapiens, UniProt P00915); assay: stopped flow CO2 hydrase assay, hCA I inhibition; settings: read-out: KI hCA I, mean from three assays
# hCA II = hCA II (Homo sapiens, UniProt P00918); assay: stopped flow CO2 hydrase assay, hCA II inhibition; settings: read-out: KI hCA II, mean from three assays
compound,measurement,setting,value
NS(=O)(=O)c1cc([N+](=O)[O-])c(O)c([N+](=O)[O-])c1,pKi,hCA I,5.36
same,pKi,hCA II,6.74
